The source of these data is PMC10786919, “Design-rules for stapled peptides with in vivo activity and their application to Mdm2/X antagonists” (Nature Communications, 2024).

By UniProt entry, the sequences of proteins in these tests, tags left out. Chains listed by the source or under a name are the forms on record and can include a tag or linker. Residues count along the entry.
UniProt Q00987, 1-125 with tags or gaps: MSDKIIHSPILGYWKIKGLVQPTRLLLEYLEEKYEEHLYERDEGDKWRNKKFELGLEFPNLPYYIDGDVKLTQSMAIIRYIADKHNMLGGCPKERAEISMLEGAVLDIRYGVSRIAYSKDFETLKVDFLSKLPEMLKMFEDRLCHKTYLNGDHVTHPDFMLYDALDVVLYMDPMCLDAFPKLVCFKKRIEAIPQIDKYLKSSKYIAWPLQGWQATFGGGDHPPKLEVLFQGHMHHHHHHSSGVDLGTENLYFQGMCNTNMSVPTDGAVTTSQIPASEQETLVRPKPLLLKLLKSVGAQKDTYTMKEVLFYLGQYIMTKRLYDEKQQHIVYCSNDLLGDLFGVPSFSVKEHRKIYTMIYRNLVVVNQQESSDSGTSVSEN

The test system of one series is HCT116 cells. The series can be described thus: Lactate dehydrogenase (LDH) release assay. It is filed as cell-based. The conditions noted are these: for EC50: read-out: LDH: Cytotoxicity assay EC50.
Another series deals with human Mdm2 1–125 (Homo sapiens, UniProt Q00987). As to the kind of experiment: Mdm2 binding by competitive fluorescence anisotropy assay (FP binding). The note with it: read-out: FP binding assay KD; Tween-20 <CMC.
In series [1] the test system is p53 responsive β-lactamase reporter in HCT116 cells. The conditions noted are these: for EC50: read-out: p53 reporter assay EC50. In general terms: A reporter such as luciferase makes a cellular process visible.
The subject of series [2] is Jump-In T-REx CHO-K1 BLA cells. The note with it: for EC50: read-out: TETCHO: Counterscreen EC50. In general terms: The purpose of a counterscreen is to sort out artefacts and off-target activity.

Like-named read-outs stand apart in the source and are kept apart here.

For the molecule `C[C@H]1CC[C@H](Cn2c(N3CCOC[C@H]3c3ccccc3)nc3cc(-c4noc(=O)[nH]4)nc(-c4cncc(Cl)c4)c32)CC1`, the “LDH: Cytotoxicity assay % Effect” value is listed as -4.4% in the series with HCT116 cells (0% FBS 4Hr), -14.3% with HCT116 cells (10% FBS 4Hr) and -16.3% in the series with HCT116 cells (10% FBS 16Hr). The EC50 was over 50700 nM with HCT116 cells (0% FBS 4Hr); over 50700 nM in the series on HCT116 cells (10% FBS 4Hr); over 50700 nM with HCT116 cells (10% FBS 16Hr); 4.54 nM in series [1] (0% FBS 4Hr); 22.7 nM in series [1] (10% FBS 4Hr); 151 nM in series [1] (10% FBS 16Hr). Further, the EC50 in series [2] (0% FBS 4Hr) is 12600 nM; in series [2] (10% FBS 4Hr), 834 nM; in series [2] (10% FBS 16Hr), 18300 nM. At human Mdm2 1–125, the Kd came to 4.3 nM. Besides, the “p53 reporter assay % Effect” value in series [1] (0% FBS 4Hr) is recorded as 75.7%; in series [1] (10% FBS 4Hr), 96.3%; in series [1] (10% FBS 16Hr), 82.6%. Moreover, the figures for the “TETCHO: Counterscreen % Effect” value in series [2] (0% FBS 4Hr), in series [2] (10% FBS 4Hr) and in series [2] (10% FBS 16Hr) were 72.1%, 67.6% and 51%, respectively.

For orientation: EC50 means the concentration that produces a half-maximal response. The Kd is the equilibrium constant for the complex coming apart.
